Ab-14 light chain CDR variants: yeast mating affinities

Binding partner: SARS-CoV-2 spike HR2 peptide, sequence PDVDLGDISGINAS.

The variants keep the heavy chain, the linker and the frameworks of Ab-14 (scFv order VH, a (GGGGS)3 linker, VL).
VH: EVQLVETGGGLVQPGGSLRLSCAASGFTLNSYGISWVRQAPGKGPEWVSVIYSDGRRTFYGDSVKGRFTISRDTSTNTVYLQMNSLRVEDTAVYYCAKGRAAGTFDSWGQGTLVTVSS
VL: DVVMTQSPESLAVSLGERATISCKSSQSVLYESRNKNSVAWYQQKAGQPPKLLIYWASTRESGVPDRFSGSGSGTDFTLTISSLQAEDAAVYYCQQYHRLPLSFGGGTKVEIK

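The starting antibody came from a phage panning campaign against this peptide. AAYL50 was designed without a model: most single CDR substitutions and a random sample of double and triple ones. In AlphaSeq, yeast of one mating type display the scFv and yeast of the other type display the target. Mating (16 h, 30 °C) was followed by selection of diploids and sequencing of their barcodes. A regression on co-assayed BCL2-family reference pairs converts the normalised counts of each replicate to an apparent Kd. Each pool was mated in three replicate cultures.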

Each variant is given by its three light chain CDRs, as the data file delimits them; those of the parent are KSSQSVLYESRNKNSVA, WASTRES, QQYHRLPLS.
Every variant below is changed at Y97 of the VL (sequential numbering).
Each Kd is an estimate from the mating assay, the geometric mean of the replicates in which the pair was seen; lower is stronger.
Where no diploid with the target was found in any replicate, the entry reads "nd": below detection, most likely a poor binder, though not proof of it.
Nonspecific signal, from three strains lacking the peptide, appeared in 18% of pairings of library AAYL50, centred on 15 µM (5% of these signals below 970 nM); values are not corrected for it.

The variant KSSQSVLGESRNKNSVA / WFSTRES / QQDHRLPLS showed nd (0 of 3 replicates). For KSSQSVFYESRNKNSVA / WASTRES / QQHHSLPLS, the assay gave 37 nM (3 of 3 replicates). The variant KSSQKVLYESRNKNSVA / RASTRES / QQDHRLPLS showed nd (0 of 3 replicates). The variant KSSQSGKYESRNKNSVA / WASTRES / QQIHRLPLS gave nd (0 of 3 replicates). For KSSQSVLYESRNKPSCA / WASTRES / QQVHRLPLS, the assay gave 2.2 µM (1 of 3 replicates). For KSSQSVLYESRNKWSVA / WASTRES / QQSHRLPLQ, the assay gave 59 nM (3 of 3 replicates). The variant KSSQSVLYESRNKNSVA / WASTRED / QQSHRGPLS showed 860 nM (2 of 3 replicates). With KSSQSVLFESRNKNSVA / WASTRES / QQLHRKPLS the result was nd (0 of 3 replicates).

The variant KSSQSVLYESRNKNSVA / WASTRTS / QQGHRDPLS gave 1.2 µM (1 of 3 replicates). The variant KSSQSVLYESRNKNSVA / WASTRES / QQAHRLPLS showed 1.4 µM (3 of 3 replicates). With KSSVSVLHESRNKNSVA / WASTRES / QQLHRLPLS the result was 12 µM (2 of 3 replicates). For KSSQSVLYESRNDNSVA / WASTRET / QQWHRLPLS, the assay gave 13 µM (2 of 3 replicates). With KSSQSVLYESRNKNSVA / WADTPES / QQAHRLPLS the result was 1.3 mM (1 of 3 replicates). The variant KTSQVVLYESRNKNSVA / WASTRES / QQCHRLPLS gave nd (0 of 3 replicates). The variant KSSQSVLYESRNKNSVA / WASTRES / QQDHRPALS showed nd (0 of 3 replicates). The variant KSSQSVLEESRNKNSVR / WASTRES / QQGHRLPLS gave 860 nM (3 of 3 replicates).

The variant KSSQSVLYESRNLNSVA / KASTRES / QQGHRLPLS gave 8.8 nM (3 of 3 replicates). For KSSQSYLYESRNKNSVA / FASTRES / QQTHRLPLS, the assay gave nd (0 of 3 replicates). With KSSQSVLYESRNKNSVA / WASTRPS / QQEHRLPLS the result was 370 nM (3 of 3 replicates). The variant KSSQSVLYESRNKNSVA / WASTRES / QQDHRLPLA gave 9.2 nM (3 of 3 replicates). With KSSQSVLYESRPKNSEA / WASTRES / QQAHRLPLS the result was nd (0 of 3 replicates). The variant KSSQSVLYESDNKNCVA / WASTRES / QQKHRLPLS showed nd (0 of 3 replicates). The variant KSSQSALYESRNKNSVA / CASTRES / QQQHRLPLS gave 53 µM (3 of 3 replicates). The variant KSSQSVLYESRNKNSVQ / WASTREA / QQMHRLPLS gave 15 µM (3 of 3 replicates).

For KSSSSVLYESRNKNSVA / WASTRES / QQAHRWPLS, the assay gave 93 µM (3 of 3 replicates). For KSAQSVLYESRNKNSVA / WASTRES / QQVHRLPLS, the assay gave nd (0 of 3 replicates). The variant KSSQSVLYESRNKSSVA / WASTRES / QQTHRDPLS showed 27 µM (1 of 3 replicates). The variant KSYQSVLYESRNKNSVA / WAWTRES / QQCHRLPLS showed 25 µM (1 of 3 replicates). With KSSQSVLYISRNKNSVA / WASTRES / QSGHRLPLS the result was 1.9 µM (3 of 3 replicates). With KSSQSVLYESRNKNSVA / WDSGRES / QQIHRLPLS the result was 120 µM (2 of 3 replicates). For KSSQSTLYESRNKNSVA / WASTREH / QQLHRLPLS, the assay gave 260 nM (3 of 3 replicates). For KSSSSVLHESRNKNSVA / WASTRES / QQGHRLPLS, the assay gave 400 nM (3 of 3 replicates).

With KSSQSVLYESRNKWCVA / WASTRES / QQRHRLPLS the result was 31 µM (1 of 3 replicates). The variant KSSQSVLYESRNKNSVA / WASNRES / QQQHRLPPS showed 160 nM (3 of 3 replicates). The variant ASSQSVLYESRNKNSVA / WASTFES / QQEHRLPLS gave nd (0 of 3 replicates). With KSSQSALYWSRNKNSVA / WASTRES / QQIHRLPLS the result was nd (0 of 3 replicates). The variant KSSQSVLYESRNKNSVA / WASTRES / QQLHSLPLS gave 46 µM (1 of 3 replicates). With KSSQHVLYESRNKNSVA / WASTRES / QQHWRLPLS the result was 900 nM (3 of 3 replicates). With KSSQSVLYESRNKNSVA / WASTRES / QQEHRAPLS the result was nd (0 of 3 replicates). The variant KSSQSVLYESRIKNSVA / WASTRES / QQWHRLPLS showed 28 µM (2 of 3 replicates).

With KSNQSVLYESRNKNSVA / WASTRES / QQHHELPLS the result was 190 nM (3 of 3 replicates). With KSSQSVLYESRNKNSVA / VASTRES / QQMHRLPLS the result was nd (0 of 3 replicates). For KSSQSVLYESRNKNSVP / WASTRES / QQMHRLPLS, the assay gave nd (0 of 3 replicates). With KSSQSVLYESRNKNSVA / WASTRES / QQCHRLPLS the result was nd (0 of 3 replicates). The variant KSSQSVLYESRNKNSVA / WASGRQS / QQLHRLPLS showed 19 µM (3 of 3 replicates). The variant KSSQSVLYESRNKNSRA / WASTREA / QQEHRLPLS showed nd (0 of 3 replicates). With KSSQSVLLESRNKNSVA / WASTRES / DQEHRLPLS the result was 6.4 nM (3 of 3 replicates). The variant KSFQSVLYYSRNKNSVA / WASTRES / QQCHRLPLS showed nd (0 of 3 replicates).

The variant KSSESVLYESRNYNSVA / WASTRES / QQPHRLPLS gave 43 nM (3 of 3 replicates).

The first 7 variants above that were never detected:

| CDR-L1 | CDR-L2 | CDR-L3 | Kd | detected |
|---|---|---|---|---|
| KSSQSVLGESRNKNSVA | WFSTRES | QQDHRLPLS | nd | 0 of 3 |
| KSSQKVLYESRNKNSVA | RASTRES | QQDHRLPLS | nd | 0 of 3 |
| KSSQSGKYESRNKNSVA | WASTRES | QQIHRLPLS | nd | 0 of 3 |
| KSSQSVLFESRNKNSVA | WASTRES | QQLHRKPLS | nd | 0 of 3 |
| KTSQVVLYESRNKNSVA | WASTRES | QQCHRLPLS | nd | 0 of 3 |
| KSSQSVLYESRNKNSVA | WASTRES | QQDHRPALS | nd | 0 of 3 |
| KSSQSYLYESRNKNSVA | FASTRES | QQTHRLPLS | nd | 0 of 3 |

Source: Engelhart et al. 2022 (doi:10.1038/s41597-022-01779-4), MIT Lincoln Laboratory and A-Alpha Bio; data file from the FLAb repository.